Reference: PubChem BioAssay AID1236 (Emory University Molecular Libraries Screening Center, 2008)
Only a part is listed here, and it is no random draw. Some structures show a salt or complex split into parts, the way the source records it. The source made the active and inactive calls.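 Rule for the calls: active = inhibition above about 50% (limit read from the data); inactive = the rest.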

test system: calpain II (m-calpain), Sus scrofa; assay: inhibitors of pig calpain II, primary screen, biochemical, fluorogenic peptide substrate, 1536-well (AID 1236); conditions: purified calpain II, 30 min, at 16 µM, active compounds read high

Row | Compound | inhibition
1 | CCN(CC)CCCOC(=O)C(O)(c1ccccc1)C1CCCCC1 (stereo not drawn) | inactive: -9.65%
2 | CP(=O)(Nc1ccccc1)Oc1ccc(F)cc1 (stereo not drawn) | inactive: -2.74%
3 | CCCCCOc1ccc(NP(C)(=O)Oc2ccc(Cl)cc2Cl)cc1 (stereo not drawn) | active: 50.9%
4 | CCOC(=O)c1ccc(NP(C)(=O)Oc2ccc(F)cc2)cc1 (stereo not drawn) | inactive: 14.3%
5 | COc1ccc(OP(C)(=O)Nc2ccc(SC(F)(F)F)cc2)cc1 (stereo not drawn) | inactive: 29.2%
6 | O=C(OC1CN2CCC1CC2)c1ccc([N+](=O)[O-])cc1 (stereo not drawn) | inactive: 28.7%
7 | O=C(OCCN1CCN(CCOCc2ccccc2)CC1)C(O)(c1ccccc1)c1ccccc1 | inactive: -4.24%
8 | COc1ccc2c(c1O)-c1c(O)c(OC)cc3c1[C@H](C2)[N+](C)(C)CC3.O=[N+]([O-])c1cc([N+](=O)[O-])c([O-])c([N+](=O)[O-])c1[O-] | inactive: -283%
9 | CP(=O)(Nc1ccccc1F)Oc1ccccc1 (stereo not drawn) | inactive: 23%
10 | CC(C)c1ccc(OP(C)(=O)Nc2ccc(SC(F)(F)F)cc2)cc1 (stereo not drawn) | inactive: 4.74%
11 | CP(=O)(Nc1ccc2c(c1)OCCO2)Oc1ccccc1 (stereo not drawn) | inactive: 29.4%
12 | Cc1ccccc1NP(C)(=O)Nc1ccccc1C | inactive: -32%
13 | CP(=O)(Nc1ccc(SC(F)(F)F)cc1)Oc1ccc(F)cc1 (stereo not drawn) | inactive: 2.09%
14 | CCOP(C)(=S)SCC(=O)NC(C)(CC)C(=O)O (stereo not drawn) | inactive: -13.7%
15 | O=[N+]([O-])c1ccc(OP2(=O)COCCO2)cc1 (stereo not drawn) | inactive: -6.58%
16 | Cc1cc(-c2cccc3ccccc23)c(C)cn1.O=[N+]([O-])c1cc([N+](=O)[O-])c(O)c([N+](=O)[O-])c1 | inactive: 18.6%
17 | O=[N+]([O-])c1cc([N+](=O)[O-])c(NCC2CCS(=O)(=O)C2)c([N+](=O)[O-])c1 (stereo not drawn) | inactive: -5.1%
18 | COc1ccc(OP(C)(=O)Nc2cccc(Br)c2)cc1 (stereo not drawn) | inactive: 20.2%
19 | CN(C)CCOC(=O)C(O)(c1ccccc1)C1CCCCC1 (stereo not drawn) | inactive: -0.31%
20 | COc1ccc(NP(C)(=O)Oc2ccccc2OC)cc1 (stereo not drawn) | inactive: 6.08%
21 | CCOC(=O)c1ccc(NP(C)(=O)Oc2ccc(Cl)cc2)cc1 (stereo not drawn) | inactive: 15.5%

Row | Compound | inhibition
22 | CP(=O)(OC12CC3CC(CC(C3)C1)C2)OC12CC3CC(CC(C3)C1)C2 | inactive: 22.7%
23 | CC(C)(C)c1ccc(OP(C)(=O)O)cc1 | inactive: -25.3%
24 | COc1ccccc1OP(C)(=O)Nc1ccccc1Br (stereo not drawn) | inactive: 2.56%
25 | CP(=O)(Nc1ccc(Cl)cc1)Oc1ccc(F)cc1 (stereo not drawn) | inactive: -23.5%
26 | CN(C)C(=O)c1c([N+](=O)[O-])cc([N+](=O)[O-])cc1[N+](=O)[O-] | inactive: -35.4%
27 | CCN(CC)CC(O)COC(=O)C(O)(c1ccccc1)C1CCCCC1 (stereo not drawn) | inactive: 30.6%
28 | COc1ccc(OP(C)(=O)Nc2ccc(Br)cc2)cc1 (stereo not drawn) | inactive: 22.6%
29 | O=C(OCCCN1CCCC1)C(O)(c1ccccc1)C1CCCCC1 (stereo not drawn) | inactive: 30.5%
30 | CP(=O)(Oc1ccccc1)N1CCOC1=O (stereo not drawn) | inactive: 5.89%
31 | CCc1ccc(OP(C)(=O)Nc2cccnc2)cc1 (stereo not drawn) | inactive: 6.62%
32 | O=[N+]([O-])c1cc([N+](=O)[O-])c(Nc2ccccn2)c([N+](=O)[O-])c1 | inactive: -15.4%
33 | Cc1c(NP(C)(=O)Oc2ccc(C(C)C)cc2)c(=O)n(-c2ccccc2)n1C (stereo not drawn) | inactive: -24.3%
34 | CP(=O)(Nc1ccccn1)Oc1ccccc1 (stereo not drawn) | inactive: -9.35%
35 | COc1ccccc1OP(C)(=O)Nc1ccc(C)cc1C (stereo not drawn) | inactive: 9.28%
36 | CCc1ccc(OP(C)(=O)O)cc1 | inactive: 2.55%
37 | COc1ccccc1OP(C)(=O)Nc1ccc(Br)cc1 (stereo not drawn) | inactive: -6.9%
38 | COc1ccc(OP(C)(=O)Nc2ccccn2)cc1 (stereo not drawn) | inactive: 0.82%
39 | CN(C)CCOC(=O)C(O)(c1ccccc1)C1CCCC1 (stereo not drawn) | inactive: 11.2%
40 | Cc1nc2ccc3ccccc3c2o1.O=[N+]([O-])c1cc([N+](=O)[O-])c(O)c([N+](=O)[O-])c1 | inactive: -8.27%
41 | CP(=O)(OCCOc1ccccc1)OCCOc1ccccc1 | inactive: -18.9%
42 | CP(=O)(Nc1ccc(Cl)cc1Cl)Oc1ccccc1 (stereo not drawn) | inactive: -1.73%

Row | Compound | inhibition
43 | Cc1cc(C)cc(OP(C)(=O)Nc2cccc(C(F)(F)F)c2)c1 (stereo not drawn) | inactive: 16.1%
44 | COc1ccccc1OP(C)(=O)Nc1ccc(C)c(C)c1 (stereo not drawn) | inactive: 21.1%
45 | COc1ccc(OP(C)(=O)Nc2ccccc2Br)cc1 (stereo not drawn) | inactive: 22.1%
46 | COc1ccccc1OP(C)(=O)Nc1ccc(C)cc1 (stereo not drawn) | inactive: 13.9%
47 | Cc1ccc(NP(C)(=O)Oc2ccccc2)c(C)c1 (stereo not drawn) | inactive: -17%
48 | CCOC(=O)c1ccc(NP(C)(=O)Oc2ccccc2)cc1 (stereo not drawn) | inactive: -4.93%
49 | Cc1cc(C)cc(OP(C)(N)=O)c1 (stereo not drawn) | inactive: 7.5%
50 | COc1ccccc1OP(C)(=O)Nc1cc(Cl)ccc1C (stereo not drawn) | inactive: -7.26%
51 | COc1ccc(OP(C)(=O)Nc2cccc(F)c2)cc1 (stereo not drawn) | inactive: 14.5%
52 | O=[N+]([O-])c1ccc2c(c1)C=Nc1ccccc1O2 | inactive: 14.6%
53 | CC(C)(C)c1ccc(OP(C)(=O)Nc2ccc(SC(F)(F)F)cc2)cc1 (stereo not drawn) | inactive: 11.2%
54 | Cc1cccc(C)c1OP(C)(N)=O (stereo not drawn) | inactive: -2.05%
55 | CCN(CC)CCCOC(=O)C(O)(c1ccccc1)c1ccccc1 | inactive: -16%
56 | CCOC(=O)c1ccc(NP(C)(=O)Oc2ccc(OC)cc2)cc1 (stereo not drawn) | inactive: -9.27%
57 | CCOP(C)(=S)SCC(=O)NC(C)C(=O)O (stereo not drawn) | inactive: -9.81%
58 | CP(=O)(Nc1ccccn1)Oc1ccc(Cl)cc1 (stereo not drawn) | inactive: 10.8%
59 | CP(=O)(Nc1ccc(SC(F)(F)F)cc1)Oc1ccc(Cl)cc1 (stereo not drawn) | inactive: 8.59%
60 | Cc1cccc(C)c1OP(C)(=O)Nc1ccc(SC(F)(F)F)cc1 (stereo not drawn) | inactive: 31.3%
61 | CP(=O)(Oc1ccccc1)OC(c1ccccc1)C(F)(F)F (stereo not drawn) | inactive: 33.2%
62 | CCc1ccc(OP(C)(=O)N2CCN(c3ccc([N+](=O)[O-])cc3)CC2)cc1 (stereo not drawn) | inactive: 17.4%
63 | CP(=O)(NC(=O)Nc1ccccc1)Oc1ccccc1 (stereo not drawn) | inactive: -15.8%
